## Apparent affinities of Ab-14 variants for a coronavirus HR2 peptide

The measurements come from Engelhart et al. 2022 (doi:10.1038/s41597-022-01779-4) through the FLAb antibody collection.

Target peptide (SARS-CoV-2 spike, HR2 region): PDVDLGDISGINAS

Parent scFv Ab-14: VH joined to VL by three GGGGS repeats. Changes lie in the light chain CDRs alone.
VH: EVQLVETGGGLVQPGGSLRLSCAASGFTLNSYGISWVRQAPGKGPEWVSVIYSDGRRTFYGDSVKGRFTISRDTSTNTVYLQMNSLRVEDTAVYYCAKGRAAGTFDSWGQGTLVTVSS
VL: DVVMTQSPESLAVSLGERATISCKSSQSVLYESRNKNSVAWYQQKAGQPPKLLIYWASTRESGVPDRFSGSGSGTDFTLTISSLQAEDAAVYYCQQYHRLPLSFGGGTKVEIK

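Variants in AAYL50 differ from the parent at up to three CDR positions; double and triple changes were sampled at random. In AlphaSeq, yeast of one mating type display the scFv and yeast of the other type display the target. The frequency of each diploid, read from paired DNA barcodes, reflects how well the two displayed proteins bind. A regression on co-assayed BCL2-family reference pairs converts the normalised counts of each replicate to an apparent Kd. Each pool was mated in three replicate cultures.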

Changes read parent residue, position, new residue, counted from the first residue of the VL shown.
Numbers give log10(Kd / nM), so 0 is 1 nM and 3 is 1 µM. Smaller is tighter.
Replicates are averaged; those with no signal do not enter the mean.
"n.d." marks a missing value. The strain was present, yet no cells mated with the target were sequenced in that replicate, which points to weak or no binding.
For reference, the parent read 0.65 as the reference entry and 1.68 as a member of this library.
As a blank, each scFv also met three strains without target: over library AAYL50, 18% of these pairings were detected, typically at 4.19 and seldom below 2.99.

changes | replicates, log10 nM | mean log10 Kd (nM)
R34K+V39H+Q95R | n.d. / n.d. / n.d. | n.d.
V29G+R60L | n.d. / 1.78 / n.d. | 1.78
K36N+L100I | 3.13 / 1.85 / 1.91 | 2.30
L30V+S38E | n.d. / n.d. / n.d. | n.d.
S28I+S58D+Q96K | 2.49 / 2.53 / 3.05 | 2.69
Q27L+L30P+Y97A | 2.20 / 2.02 / 1.98 | 2.07
Y31G+Q96M | 0.36 / 0.62 / 0.55 | 0.51
R34N+R60G+L102T | n.d. / n.d. / n.d. | n.d.
R34F+Q95N+L100D | 0.73 / 0.94 / 0.83 | 0.83
L30F+K36W | 1.19 / 1.33 / 1.33 | 1.28
S33Y+S38L+S103W | n.d. / n.d. / n.d. | n.d.
Q27C+R34D | 0.57 / 0.64 / 0.79 | 0.67
K24Q+L102W | n.d. / n.d. / n.d. | n.d.
S25M+E32N+V39M | 0.13 / 0.58 / 0.18 | 0.29
S33Q+N35G+P101V | n.d. / n.d. / n.d. | n.d.
L30A+N37M+P101S | 2.00 / 1.70 / 2.50 | 2.07
S58I+T59D+Y97D | n.d. / n.d. / n.d. | n.d.
N37S+A40N+P101N | n.d. / n.d. / n.d. | n.d.
T59H+Q95Y+H98K | n.d. / n.d. / n.d. | n.d.
S26N+N35L+W56F | 1.65 / 1.72 / 1.91 | 1.76
K24D+Y31K+L102K | 2.49 / 1.96 / 2.36 | 2.27
K24Y+E61W+P101C | n.d. / n.d. / n.d. | n.d.
R34A+Q95T+R99M | 1.25 / 1.35 / 1.47 | 1.36
L30M+S33P+E61S | 1.92 / 1.91 / 2.21 | 2.01
V39T+R99V | n.d. / n.d. / n.d. | n.d.
K36V+N37C+W56S | 0.58 / 1.16 / 0.67 | 0.80
Y31N+E32A+S58R | 1.58 / 1.65 / 1.59 | 1.61
K36E+W56E+S103F | -0.22 / 0.21 / -0.10 | -0.04
E32A+R60M+P101S | 2.32 / 2.56 / n.d. | 2.44
T59G+E61H+H98I | 4.54 / n.d. / n.d. | 4.54
N35C+K36H+Q95S | 1.12 / 1.47 / 1.70 | 1.43
K36W+N37T+T59M | 2.56 / 2.36 / 2.59 | 2.50

Top 2 of the variants detected in all replicates, tightest first:

changes | replicates, log10 nM | mean log10 Kd (nM)
K36E+W56E+S103F | -0.22 / 0.21 / -0.10 | -0.04
S25M+E32N+V39M | 0.13 / 0.58 / 0.18 | 0.29